# From PubChem BioAssay AID588398 (Broad Institute, 2011)
# The list shows a part of the results, in another mix than the full data. Entries with a potency or affinity are not part of this list. Records with an inconclusive call do not appear. Calls of active or inactive are those of the source.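 The calls were made as follows: active = pathway reporter half-maximal dose under half the control reporter's, or control reporter unaffected while pathway reporter is inhibited; inconclusive = either signal flat at 30 to 70% inhibition or poorly fitted; inactive = the rest.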
# Test: TES1-eGFP NF-kB reporter inhibition versus Tet-On dsRED, dose response, selectivity assay for LMP1 NF-kB inhibitor project, imaging, HEK293T, dual-color eGFP/dsRED, cherry-picks (AID 588398);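 also: 0% = median of neutral control wells and -100% = median of MG132 positive control wells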
# Conditions: HEK293T Tet-On dsRED counter-screen channel, 48 h; at 19.5 µM (top of the series)
row,Compound,"activity change, negative = inhibition"
1,COC(=O)C1C2CC[C@@H](CC1OC(=O)c1ccccc1)N2 (stereo partly specified),inactive: 5.47%
